From patent US9156815B2, “Salt of (R)-3-(6-amino-pyridin-3-yl)-2-(1-Cyclohexyl-1H-imidazol-4-yl) ethyl propionate” (Sanofi, priority 2011, dated 2015)

Assay: Salt screening of the API with acids and solvents, XRPD measurement
Type: physicochemical
Design: key: NKP means no crystalline phase; KFA means free acid crystallizes
Conditions: API + acid
Method: The molar ratio between the H^+ concentration of the acid and of the API is 2 (for details see table 2). In each cavity of the microtiter plate, 68 microliters of the dissolved API are mixed with 40 microliters of the 0.1 normal acid solutions.
68 microliters of the dissolved API are pipetted into each cavity of a 96 microtiter plate. Then, in each case 40 microliters of the acids dissolved as in table 2 are added according to the scheme as detailed in table 3. The microtiter plate is shaken at room temperature for 20 min so that an equilibrium is formed in the cavities. Evaporation of the solvents at room temperature in a stream of nitrogen for 2 hours. Then, in each case 40 microliters of the solvents according to the scheme as detailed in table 3 are added. The microtiter plate is shaken at room temperature for 20 min so that an equilibrium is formed in the cavities. Evaporation of the solvent then takes place at room temperature in a stream of nitrogen for 2 hours. Finally, XRPD measurement is carried out.

XRPD result of salt screening (solvent 2-Methyl-1-propanol) | XRPD result of salt screening (solvent 2-Propanol) | XRPD result of salt screening (solvent Butyl acetate) | XRPD result of salt screening (solvent Ethanol) | XRPD result of salt screening (solvent Methanol) | XRPD result of salt screening (solvent Methyl ethyl ketone) | XRPD result of salt screening (solvent Water) | XRPD result of salt screening (solvent Water:methanol 1:1) | Substance
NKP | NKP | NKP | NKP | NKP | NKP | NKP | NKP | Acetic acid
KFA | KFA | KFA | KFA | NKP | NKP | NKP | NKP | Succinic acid
NKP | NKP | NKP | NKP | NKP | NKP | NKP | NKP | Phosphoric acid

Substance | XRPD result of salt screening (solvent 2-Methyl-1-propanol) | XRPD result of salt screening (solvent 2-Propanol) | XRPD result of salt screening (solvent Butyl acetate) | XRPD result of salt screening (solvent Ethanol) | XRPD result of salt screening (solvent Methanol) | XRPD result of salt screening (solvent Methyl ethyl ketone) | XRPD result of salt screening (solvent Water) | XRPD result of salt screening (solvent Water:methanol 1:1)
Hydrochloric acid | NKP | NKP | NKP | NKP | NKP | NKP | NKP | NKP
